Data as given in patent US7192924B2, “Corticotropin releasing factor 2 receptor agonists” (priority 2002, dated 2007).

Columns and labels:
CRF2R = molecular target: T1, CRF2R (Homo sapiens, UniProt Q13324); test: CRF2R agonist activity (EC50, Emax), called comparative CRF binding; assay type: cell-based
T1 sequence (Q13324 1-411): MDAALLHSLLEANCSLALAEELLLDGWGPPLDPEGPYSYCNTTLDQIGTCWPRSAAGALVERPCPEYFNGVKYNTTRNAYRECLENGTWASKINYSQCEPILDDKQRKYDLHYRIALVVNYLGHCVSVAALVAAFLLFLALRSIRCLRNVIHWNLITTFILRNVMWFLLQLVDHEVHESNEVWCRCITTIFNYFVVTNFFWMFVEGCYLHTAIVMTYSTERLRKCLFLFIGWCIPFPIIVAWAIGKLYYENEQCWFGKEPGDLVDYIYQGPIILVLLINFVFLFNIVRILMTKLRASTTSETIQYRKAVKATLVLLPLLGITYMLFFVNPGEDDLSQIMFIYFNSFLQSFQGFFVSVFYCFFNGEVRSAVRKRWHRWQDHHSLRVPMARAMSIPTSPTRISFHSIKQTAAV
Method in brief: (§1)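 Recombinant CRF1R or CRF2R cells were exposed to peptide. Reporter expression linked to cAMP response element was then quantitated, relative to vehicle control.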

CRF1R = molecular target: T2, CRF1R (Homo sapiens, UniProt P34998); test: CRF1R agonist activity (EC50, Emax), called comparative CRF binding; assay type: cell-based
T2 sequence (P34998 24-415): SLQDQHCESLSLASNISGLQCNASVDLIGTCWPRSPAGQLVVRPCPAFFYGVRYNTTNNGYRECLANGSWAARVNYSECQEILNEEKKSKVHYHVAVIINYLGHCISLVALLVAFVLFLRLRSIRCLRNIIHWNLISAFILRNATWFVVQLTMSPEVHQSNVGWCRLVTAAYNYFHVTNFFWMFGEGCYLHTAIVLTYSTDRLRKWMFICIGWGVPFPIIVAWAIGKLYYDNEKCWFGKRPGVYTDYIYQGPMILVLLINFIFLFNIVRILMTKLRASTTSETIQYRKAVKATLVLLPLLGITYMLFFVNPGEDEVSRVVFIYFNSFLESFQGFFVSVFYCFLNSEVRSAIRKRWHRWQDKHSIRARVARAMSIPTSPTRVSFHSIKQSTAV
Method in brief: as §1

With `CC[C@H](C)[C@H](NC(=O)[C@@H](NC(=O)[C@H](CC(=O)O)NC(=O)[C@H](CC(C)C)NC(=O)[C@H](CC(C)C)NC(=O)[C@H](CC(C)C)NC(=O)[C@H](CCCNC(=N)N)NC(=O)[C@H](CC(N)=O)NC(=O)[C@H](CC(N)=O)NC(=O)[C@H](C)NC(=O)[C@H](C)NC(=O)[C@H](CCC(N)=O)NC(=O)[C@H](CCC(N)=O)NC(=O)[C@H](CCCCN)NC(=O)[C@H](CCC(=O)O)NC(=O)[C@H](CCCCN)NC(=O)[C@H](CCC(=O)O)NC(=O)[C@H](CCC(N)=O)NC(=O)[C@H](CCCCN)NC(=O)[C@H](CCC(=O)O)NC(=O)[C@@H](NC(=O)[C@H](CCC(=O)O)NC(=O)[C@@H](NC(=O)[C@H](CCSC)NC(=O)[C@H](CCCCN)NC(=O)[C@H](CCCNC(=N)N)NC(=O)[C@H](CC(C)C)NC(=O)[C@H](CC(C)C)NC(=O)[C@@H](NC(=O)[C@H](Cc1ccccc1)NC(=O)[C@@H]1CCCN1C(=O)[C@H](CC(C)C)NC(=O)[C@H](CC(=O)O)NC(=O)[C@@H](NC(=O)[C@H](CO)NC(=O)[C@@H](NC(=O)[C@@H]1CCCN1C(=O)[C@@H]1CCCN1C(=O)CNC(=O)[C@@H]1CCC(=O)N1)[C@@H](C)CC)[C@@H](C)CC)C(C)C)[C@@H](C)CC)[C@@H](C)CC)[C@@H](C)O)C(N)=O` [compound 190] the EC50 (CRF2R) was 39.6 nM and the EC50 (CRF1R) was > 100 nM.

Work on `CC[C@H](C)[C@H](NC(=O)[C@@H](NC(=O)[C@H](C)NC(=O)[C@H](CC(C)C)NC(=O)[C@H](CC(C)C)NC(=O)[C@H](CC(C)C)NC(=O)[C@H](CCCNC(=N)N)NC(=O)[C@H](CC(N)=O)NC(=O)[C@H](CC(N)=O)NC(=O)[C@H](C)NC(=O)[C@H](C)NC(=O)[C@H](CCC(N)=O)NC(=O)[C@H](CCC(N)=O)NC(=O)[C@H](CCCCN)NC(=O)[C@H](CCC(=O)O)NC(=O)[C@H](CCCCN)NC(=O)[C@H](CCC(=O)O)NC(=O)[C@H](CCC(N)=O)NC(=O)[C@H](CCCCN)NC(=O)[C@H](CCC(=O)O)NC(=O)[C@@H](NC(=O)[C@H](CCC(=O)O)NC(=O)[C@@H](NC(=O)[C@H](CCSC)NC(=O)[C@H](CCCCN)NC(=O)[C@H](CCCNC(=N)N)NC(=O)[C@H](CC(C)C)NC(=O)[C@H](CC(C)C)NC(=O)[C@H](CCC(N)=O)NC(=O)[C@H](Cc1ccccc1)NC(=O)[C@@H]1CCCN1C(=O)[C@H](CC(C)C)NC(=O)[C@H](CC(=O)O)NC(=O)[C@@H](NC(=O)[C@H](CO)NC(=O)[C@@H](NC(=O)[C@@H]1CCCN1C(=O)[C@@H]1CCCN1C(=O)CNC(=O)[C@@H]1CCC(=O)N1)[C@@H](C)CC)[C@@H](C)CC)[C@@H](C)CC)[C@@H](C)CC)[C@@H](C)O)C(N)=O` [compound 250] yielded an EC50 (CRF2R) of 19.7 nM and an EC50 (CRF1R) of 138 nM.

For `CC[C@H](C)[C@H](NC(=O)[C@H](CCC(=O)O)NC(=O)[C@@H](NC(=O)[C@H](CCSC)NC(=O)[C@H](CCCCN)NC(=O)[C@H](CCCNC(=N)N)NC(=O)[C@H](CC(C)C)NC(=O)[C@H](CC(C)C)NC(=O)[C@H](CCC(N)=O)NC(=O)[C@H](Cc1ccccc1)NC(=O)[C@@H]1CCCN1C(=O)[C@H](CC(C)C)NC(=O)[C@H](CC(=O)O)NC(=O)[C@@H](NC(=O)[C@H](CO)NC(=O)[C@@H](NC(=O)[C@@H]1CCCN1C(=O)[C@@H]1CCCN1C(=O)CNC(=O)[C@@H]1CCC(=O)N1)[C@@H](C)CC)[C@@H](C)CC)[C@@H](C)CC)C(=O)N[C@@H](CCC(=O)O)C(=O)N[C@@H](CCCCN)C(=O)N[C@@H](CCC(N)=O)C(=O)N[C@@H](CCC(=O)O)C(=O)N[C@@H](CCCCN)C(=O)N[C@@H](CCC(=O)O)C(=O)N[C@@H](CCCCN)C(=O)N[C@@H](CCC(N)=O)C(=O)N[C@@H](CCC(N)=O)C(=O)N[C@@H](C)C(=O)N[C@H](C(=O)N[C@@H](CC(N)=O)C(=O)N[C@@H](CC(N)=O)C(=O)N[C@@H](CCCNC(=N)N)C(=O)N[C@@H](CC(C)C)C(=O)N[C@@H](CC(C)C)C(=O)N[C@@H](CC(C)C)C(=O)N[C@@H](C)C(=O)N[C@H](C(=O)N[C@H](C(N)=O)C(C)C)[C@@H](C)O)[C@@H](C)O` [compound 12], the EC50 (CRF2R) was 9.72 nM and the EC50 (CRF1R) was 928 nM.
